Molecular target: F-actin polymers (polymerized from monomeric rabbit G-actin) (rabbit) (UniProt P68135)
Assay: cell-based or functional assay

inhibition of fascin-induced F-actin bundle formation in the presence of the small molecule macroketone (fluorescence microscopy): > 80%
Substance: purified recombinant fascin protein (Example 5)

Source: US20100297109A1, “METHODS FOR INHIBITING FASCIN” (Cornell University, priority 2007, published 2010)
